Biological target: 3H-Diazepam binding, rat brain cortical fragments
Assay: 3H-Diazepam Binding Assay
Settings: Tris buffer, assayed in triplicate, read-out: IC50 (nM), concentration required to inhibit binding by 50%
Procedure: Brief-Description: Rat brain cortical fragments are prepared and the binding procedures performed as described by Mohler and Okada (Life Sciences, 20, 2101, 1977) except that Tris buffer is substituted for Krebs buffer. Drugs are assayed in triplicate.
Measurements Made: Radioactivity is measured by liquid scintillation counting.

CN1C(=O)CN=C(c2ccccc2F)c2cc([N+](=O)[O-])ccc21 [Flunitrazepam]
IC50: 1.8 nM

— patent US4436662A, “Pyrrolo[3,4-d][2]benzazepinones” (Hoffmann-La Roche Inc., priority 1983, dated 1984)
